Laboratory results: ChEMBL document CHEMBL1124104, “(Acyloxy)benzophenones and (acyloxy)-4-pyrones. A new class of inhibitors of human neutrophil elastase” (J Med Chem, 1988)

Key:
[1] = biological target: T1, Neutrophil elastase (Homo sapiens, UniProt P08246); test: Binding affinity towards human leukocyte elastase at 10e-7 M
T1 sequence (P08246 whole entry): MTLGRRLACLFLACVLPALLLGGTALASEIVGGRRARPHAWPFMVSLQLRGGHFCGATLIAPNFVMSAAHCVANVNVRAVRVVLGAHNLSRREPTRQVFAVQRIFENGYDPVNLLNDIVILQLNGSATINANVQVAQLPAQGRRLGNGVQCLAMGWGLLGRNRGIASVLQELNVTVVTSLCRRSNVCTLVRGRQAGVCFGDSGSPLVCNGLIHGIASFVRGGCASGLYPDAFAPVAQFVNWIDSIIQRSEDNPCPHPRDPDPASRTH
In short: (§1)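 HLE activity followed as rise in absorbance at 410 nm from nitroanilide release; substrate (methoxysuccinyl)Ala-Ala-Pro-Val nitroanilide at 10⁻⁴ M. Run in 0.2 M Tris, pH 8.0, 30 °C. Inhibitors and substrate dissolved in DMSO, which made up 10% of the final medium. Enzyme titrated to give 0.12 OD unit/min per 10 mm path.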

[2] = biological target: T1, Neutrophil elastase; test: Inhibitory activity against human leukocyte elastase at 10e-7 M; in short: as §1

| SMILES | Ki [1] | IC50 [2] |
| --- | --- | --- |
| CC(C)(C)C(=O)Oc1ccc(S(=O)(=O)c2ccc(OC(=O)C(C)(C)C)cc2)cc1 | 200 nM |  |
| CC(C)(C)C(=O)Oc1ccc(/N=N/c2ccc(OC(=O)C(C)(C)C)cc2)cc1 |  | 130 nM |
